Measurements as given in patent US8895585B2, “Nicotinamide derivative or salt thereof” (FUJIFILM Corporation, priority 2010, dated 2014).
pIC50: −log10 of the molar value. Where two headings read alike, the source gives them in different places.

Columns and labels:
[1] = target: glutathione S-transferase (GST)-fused full-length human Syk protein (Homo sapiens, UniProt P43405); test: Syk enzyme assay
Experimental: A glutathione S-transferase (GST)-fused full-length human Syk protein (Carna Biosciences), which had been generated using a Baculovirus expression system, was used in the Syk enzyme assay.
15 μl of a reaction solution (1.2 ng Syk, 20 mM HEPES, 10 mM MgCl2, 50 mM NaCl, 2 mM DTT, 0.05% BSA, pH 7.0) containing a Syk protein and a predetermined concentration of a test compound was shaken for 2 minutes, and it was then left at rest at room temperature for 13 minutes. Thereafter, 5 μl of Biotin-EDPDYEWPSA-NH2 (final concentration: 0.4 μM) serving as a substrate peptide and 5 μl of ATP (final concentration: 27 μM) were added to the reaction solution, and the obtained mixture was then shaken for 2 minutes. The reaction solution was further left at rest at room temperature for 40 minutes, so as to carry out an enzyme reaction.
Thereafter, 50 μl of a reaction termination solution [5 μg/ml Streptavidin, 0.18 μg/ml PT66-K, 30 mM HEPES (pH 7.0), 150 mM KF, 75 mM EDTA, 0.15% BSA, 0.075% Tween20], which contained Streptavidin-Xlent (Cisbio) and Mab PT66-K (Cisbio), was added to the reaction solution to terminate the enzyme reaction. At the same time, the reaction solution was left at rest at room temperature for 1 hour, so as to carry out an antigen-antibody reaction. Thereafter, using EnVision (PerkinElmer), the time-resolved fluorescence was measured at 615 nm and 665 nm, so that the phosphorylation of the substrate peptide was measured.
In addition, the following are standards for evaluating IC50 of Syk-inhibitory activity used in Table 21. • A: Up to 10 nM • B: 10 to 50 nM • C: 50 to 100 nM • D: 100 to 1000 nM The set of numbers (XYZ-xyz) given in each Example number column indicates the corresponding Example number (Example XYZ-xyz) in Table 21.

[2] = tested on: THP-1 cells; test: TNFα generation assay; format: cell-based, human
Experimental: THP-1 cells (2×10^5 cells/ml), which were human monocytoid cells, were cultured in the presence of 10 ng/ml IFN-γ (Roche) for 2 days, so that the cells were induced to differentiate into macrophage-like cells. The differentiation-induced THP-1 cells were recovered, and the cells (1×10^6 cell/ml) were then allowed to react with a predetermined concentration of test compound at room temperature for 30 minutes. On the other hand, 100 μl of human IgG (10 μg/ml, SIGMA-ALDRICH) diluted with PBS was added to a 96-well plate, and it was then incubated at room temperature overnight. Thereafter, the resultant was washed with PBS twice to produce a human IgG-coated plate. Subsequently, a cell solution that contained a compound was inoculated on the human IgG-coated plate (5×10^4 cells/well), and it was then cultured for 7 hours. Thereafter, the cultured solution was recovered, and the amount of TNFα secreted into the culture solution was then measured by the ELISA method (Roche/R & D Systems) or the AlphaLISA method (PerkinElmer).
In addition, the following are used in Table 22 to denote criteria for evaluating IC50 in TNFα generation assay. • A: Up to 65 nM • B: 65 to 130 nM • C: 130 to 200 nM

[3] = read-out: IC50 of Syk-inhibitory activity, Test Example 1
[4] = read-out: IC50 in TNFα generation assay, Table 22
[5] = read-out: IC50 of Syk-inhibitory activity, Test Example 1, tested form: HCl
[6] = read-out: IC50 in TNFα generation assay, Table 22, tested form: HCl

SMILES	pIC50 [1, 3]	pIC50 [2, 4]	pIC50 [1, 5]	pIC50 [2, 6]
COc1cc(Nc2nc(N[C@@H]3CCCC[C@@H]3N)c(F)cc2C(N)=O)ccn1	> 8.00	6.89 to 7.19		
NC(=O)c1cc(Cl)c(N[C@@H]2CCCC[C@@H]2N)nc1Nc1cccc(-n2nccn2)c1	> 8.00	6.70 to 6.89		
NC(=O)c1cc(F)c(N[C@@H]2CCCC[C@@H]2N)nc1Nc1ccc2c(cnn2CCN2CCOCC2)c1	> 8.00	6.70 to 6.89		
NC(=O)c1cc(F)c(N[C@@H]2CCCC[C@@H]2N)nc1Nc1ccnc(N2CCOCC2)c1	> 8.00	6.70 to 6.89		
NCCNc1nc(Nc2cccc3ncccc23)c(C(N)=O)cc1F	7.30 to 8.00	6.89 to 7.19		
NCCNc1nc(Nc2cncc3ccccc23)c(C(N)=O)cc1F	7.30 to 8.00	6.89 to 7.19		
CCCCOc1ccc(C(=O)Nc2cncc(Nc3nc(N[C@@H]4CCCC[C@@H]4N)c(F)cc3C(N)=O)c2)cc1 (relative stereo)			6.00 to 7.00	
COCCN(CCOC)c1ccc(Nc2nc(N[C@@H]3CCCC[C@@H]3N)c(F)cc2C(N)=O)cn1 (relative stereo)			6.00 to 7.00	
COCCOc1cc(Nc2nc(N[C@@H]3CCCC[C@@H]3N)c(F)cc2C(N)=O)cc(-c2ccccc2)n1 (relative stereo)			7.30 to 8.00	
COc1cc(Nc2nc(N[C@@H]3CCCC[C@@H]3N)c(F)cc2C(N)=O)cc(-c2ccccc2)n1 (relative stereo)			> 8.00	
COc1ccc(C(=O)Nc2cncc(Nc3nc(N[C@@H]4CCCC[C@@H]4N)c(F)cc3C(N)=O)c2)cc1 (relative stereo)			7.30 to 8.00	
COc1ccc(Nc2nc(N[C@@H]3CCCC[C@@H]3N)c(F)cc2C(N)=O)c2cccnc12 (relative stereo)			7.00 to 7.30	
COc1ccc2ncc(Nc3nc(N[C@@H]4CCCC[C@@H]4N)c(F)cc3C(N)=O)cc2c1 (relative stereo)	> 8.00	> 7.19		
COc1cccc(Nc2nc(N[C@@H]3CCCC[C@@H]3N)c(Cl)cc2C(N)=O)c1 (relative stereo)			> 8.00	6.89 to 7.19
Cc1ccc2cc(Nc3nc(N[C@@H]4CCCC[C@@H]4N)c(F)cc3C(N)=O)ccc2n1 (relative stereo)			> 8.00	6.89 to 7.19
Cc1cnc2cc(Nc3nc(N[C@@H]4CCCC[C@@H]4N)c(F)cc3C(N)=O)ccc2n1 (relative stereo)			> 8.00	> 7.19
Cc1cncc(Nc2nc(N[C@@H]3CCCC[C@@H]3N)c(Cl)cc2C(N)=O)c1 (relative stereo)			> 8.00	6.89 to 7.19
Cc1nc2cc(Nc3nc(N[C@@H]4CCCC[C@@H]4N)c(F)cc3C(N)=O)ccc2o1 (relative stereo)			7.30 to 8.00	
Cn1cnc2cc(Nc3nc(N[C@@H]4CCCC[C@@H]4N)c(F)cc3C(N)=O)ccc21 (relative stereo)			> 8.00	6.89 to 7.19
Cn1cnc2ccc(Nc3nc(N[C@@H]4CCCC[C@@H]4N)c(F)cc3C(N)=O)cc21 (relative stereo)	> 8.00	> 7.19		
Cn1ncc2c(Nc3nc(N[C@@H]4CCCC[C@@H]4N)c(F)cc3C(N)=O)cccc21 (relative stereo)			> 8.00	> 7.19
Cn1ncc2ccc(Nc3nc(N[C@@H]4CCCC[C@@H]4N)c(F)cc3C(N)=O)cc21 (relative stereo)			> 8.00	> 7.19
NC(=O)c1cc(F)c(N[C@@H]2CCCC[C@@H]2N)nc1Nc1cc(-c2ccccc2)nc(N2CCOCC2)c1 (relative stereo)			> 8.00	

SMILES	pIC50 [1, 3]	pIC50 [2, 4]	pIC50 [1, 5]	pIC50 [2, 6]
NC(=O)c1cc(F)c(N[C@@H]2CCCC[C@@H]2N)nc1Nc1ccc(N2C(=O)COc3ccccc32)nc1 (relative stereo)			6.00 to 7.00	
NC(=O)c1cc(F)c(N[C@@H]2CCCC[C@@H]2N)nc1Nc1ccc(N2CCCCC2)nc1 (relative stereo)			7.00 to 7.30	
NC(=O)c1cc(F)c(N[C@@H]2CCCC[C@@H]2N)nc1Nc1ccc2c(c1)OCCO2 (relative stereo)	7.30 to 8.00	6.89 to 7.19		
NC(=O)c1cc(F)c(N[C@@H]2CCCC[C@@H]2N)nc1Nc1ccc2c(cnn2CCN2CCCC2)c1 (relative stereo)			> 8.00	6.89 to 7.19
NC(=O)c1cc(F)c(N[C@@H]2CCCC[C@@H]2N)nc1Nc1ccc2cccnc2c1 (relative stereo)			7.30 to 8.00	> 7.19
NC(=O)c1cc(F)c(N[C@@H]2CCCC[C@@H]2N)nc1Nc1ccc2cncnc2c1 (relative stereo)	> 8.00	> 7.19		
NC(=O)c1cc(F)c(N[C@@H]2CCCC[C@@H]2N)nc1Nc1ccc2nccnc2c1 (relative stereo)	> 8.00	> 7.19		
NC(=O)c1cc(F)c(N[C@@H]2CCCC[C@@H]2N)nc1Nc1ccc2ncsc2c1 (relative stereo)			> 8.00	> 7.19
NC(=O)c1cc(F)c(N[C@@H]2CCCC[C@@H]2N)nc1Nc1ccc2nn(CCN3CCCC3)cc2c1 (relative stereo)			> 8.00	6.89 to 7.19
NC(=O)c1cc(F)c(N[C@@H]2CCCC[C@@H]2N)nc1Nc1ccc2scnc2c1 (relative stereo)	> 8.00	> 7.19		
NC(=O)c1cc(F)c(N[C@@H]2CCCC[C@@H]2N)nc1Nc1cccc2nsnc12 (relative stereo)			> 8.00	
NC(=O)c1cc(F)c(N[C@@H]2CCCC[C@@H]2N)nc1Nc1cncc(C(=O)O)c1 (relative stereo)			7.00 to 7.30	
NC(=O)c1cncc(Nc2nc(N[C@@H]3CCCC[C@@H]3N)c(F)cc2C(N)=O)c1 (relative stereo)			7.30 to 8.00	
Cc1cccc(Nc2nc(N[C@@H]3CCCC[C@@H]3N)c(F)cc2C(N)=O)c1 (relative stereo) [Example 2-3, 6-(cis-2-aminocyclohexylamino)-5-fluoro-2-((3-methyl-phenyl)amino)nicotinamide]	> 8.00			
NC(=O)c1cc(F)c(N[C@@H]2CCCC[C@@H]2N)nc1Nc1ccc(-c2ccccc2)nc1 (relative stereo) [Example 2-9, 6-(cis-2-aminocyclohexylamino)-5-fluoro-2-((6-phenylpyridin-3-yl)amino)nicotinamide]	7.30 to 8.00			
COc1ccc(Nc2nc(N[C@@H]3CCCC[C@@H]3N)c(F)cc2C(N)=O)cn1 (relative stereo) [Example 2-10, 6-(cis-2-aminocyclohexylamino)-5-fluoro-2-((6-methoxypyridin-3-yl)amino)nicotinamide]	7.00 to 7.30			
Cc1cccc(Nc2nc(NCCN)c(F)cc2C(N)=O)c1 [Example 6-2, 6-((2-aminoethyl)amino)-5-fluoro-2-(3-methylphenylamino)nico-tinamide]			6.00 to 7.00	
Cc1nc2ccc(Nc3nc(NCCN)c(F)cc3C(N)=O)cc2o1 [Example 6-23, 6-((2-aminoethyl)amino)-5-fluoro-2-((2-methylbenzo[d]oxazol-6-yl)amino)nicotinamide]			7.30 to 8.00	
CC(=O)Nc1cccc(Nc2nc(NCCN)c(F)cc2C(N)=O)c1 [Example 6-24, 2-((3-acetylaminophenyl)amino)-6-((2-aminoethyl)amino)-5-fluoronicotinamide]			6.00 to 7.00	
Cn1ncc2ccc(Nc3nc(NCCN)c(F)cc3C(N)=O)cc21 [Example 6-27, 6-((2-aminoethyl)amino)-5-fluoro-2-((1-methyl-1H-indazol-6-yl)amino)nicotinamide]			6.00 to 7.00	
COc1cc(Nc2nc(N[C@@H]3CCCC[C@@H]3N)c(F)cc2C(N)=O)cc(OC)n1 [Example 006-114, 6-(((1R,2S)-2-aminocyclohexyl)amino)-2-((2,6-dimethoxypyridin-4-yl)amino)-5-fluoronicotinamide]	> 8.00			
COc1cc(Nc2nc(NC(C(N)=O)C(C)C)c(F)cc2C(N)=O)cc(OC)c1 (centres unmarked) [Example 32, 6-(1-aminocarbonyl-2-methylpropylamino)-2-(3,5-dimethoxyphenylamino)-5-fluoro nicotinamide]	7.00 to 7.30			
